Test results taken from ChEMBL document CHEMBL3407489, “Bis-aryl urea derivatives as potent and selective LIM kinase (Limk) inhibitors” (J Med Chem, 2015).

Amino acid sequences for entries named in this document (tags omitted). A change or cut given only in a name is not applied to a line headed by its entry.
UniProt P53669: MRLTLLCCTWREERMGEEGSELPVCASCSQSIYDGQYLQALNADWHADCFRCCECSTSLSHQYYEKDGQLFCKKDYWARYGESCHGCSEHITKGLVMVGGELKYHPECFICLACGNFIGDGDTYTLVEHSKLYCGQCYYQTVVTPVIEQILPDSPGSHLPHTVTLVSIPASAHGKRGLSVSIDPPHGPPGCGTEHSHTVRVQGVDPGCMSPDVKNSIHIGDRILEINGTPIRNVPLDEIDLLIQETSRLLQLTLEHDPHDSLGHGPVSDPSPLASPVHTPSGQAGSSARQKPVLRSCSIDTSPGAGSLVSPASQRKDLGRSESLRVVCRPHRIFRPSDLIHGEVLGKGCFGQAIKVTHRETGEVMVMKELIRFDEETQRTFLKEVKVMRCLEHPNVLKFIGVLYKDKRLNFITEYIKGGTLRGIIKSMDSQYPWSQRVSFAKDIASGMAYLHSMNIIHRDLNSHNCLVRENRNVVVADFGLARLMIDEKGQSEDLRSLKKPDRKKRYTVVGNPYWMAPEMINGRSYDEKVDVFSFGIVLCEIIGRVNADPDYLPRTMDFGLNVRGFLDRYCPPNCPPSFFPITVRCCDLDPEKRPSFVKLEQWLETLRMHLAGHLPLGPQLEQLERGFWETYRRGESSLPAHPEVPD

Target: LIM domain kinase 1 (Rattus norvegicus, UniProt P53669)
Experiment: Inhibition of Limk1 in rat A7r5 cells assessed as reduction in cofilin phosphorylation by Western blot method
Type: cell-based

Row | SMILES | IC50 [nM]
1 | COc1ccc(N(CCO)C(=O)Nc2ccc(-c3ncnc4[nH]cc(C)c34)cc2)cc1 | 730
2 | Cc1ccc(N(CCO)C(=O)Nc2ccc(-c3ncnc4[nH]cc(C)c34)cc2)cc1 | 190
